Ab-14 heavy chain CDR variants: yeast mating affinities

Data: MIT Lincoln Laboratory AlphaSeq set, Li et al. 2023, doi:10.1038/s41467-023-39022-2, as distributed in FLAb.

Binding partner: SARS-CoV-2 spike HR2 peptide, sequence PDVDLGDISGINAS.

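The starting antibody came from a phage panning campaign against this peptide. Designed CDR sequences, proposed from the first random library and measured here. Their group label is 14H_En_HC (En: ensemble of fine-tuned language models; HC: hill climbing; a sequence that several methods proposed may carry one label only). AlphaSeq pools MATa yeast showing the antibodies with MATalpha yeast showing the peptide. Mating (16 h, 30 °C) was followed by selection of diploids and sequencing of their barcodes. Read counts were normalised to the haploid input and turned into Kd by a linear fit to BCL2-family pairs of known affinity, for each replicate. Mating was done six times.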

The variants keep the light chain, the linker and the frameworks of Ab-14 (scFv order VH, three GGGGS repeats, VL).
VH: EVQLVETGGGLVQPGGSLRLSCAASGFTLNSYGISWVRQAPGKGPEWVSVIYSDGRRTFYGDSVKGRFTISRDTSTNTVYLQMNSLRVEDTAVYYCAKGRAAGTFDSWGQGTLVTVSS
VL: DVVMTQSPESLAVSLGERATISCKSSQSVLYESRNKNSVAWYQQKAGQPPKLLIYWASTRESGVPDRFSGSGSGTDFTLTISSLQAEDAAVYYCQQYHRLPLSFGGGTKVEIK

The parent's heavy chain CDRs are GFTLNSYGIS, VIYSDGRRTFYGDSVK, GRAAGTFDS; each variant's own CDRs replace them letter for letter. Values are log10 of the apparent Kd in nM; lower means stronger binding. The mean shown is taken over the replicates in which the pair was detected. "nd" means that the variant was in the library but no mating with the target was seen in that replicate; the authors take this as a sign of poor binding, and no number exists.

{"CDR-H1": "GFDLNEYGIS", "CDR-H2": "VIYADGRRTFYIDSVK", "CDR-H3": "GENAGTFDI", "log10 Kd (nM) by replicate": "-0.20 -0.27 -0.50 -0.59 -0.55 -0.31", "mean log10 Kd (nM)": "-0.40", "signal with controls": "0/18"}
{"CDR-H1": "GFDLNEYGIS", "CDR-H2": "VIYADGRRTFYSDSVK", "CDR-H3": "GGNAGTFDS", "log10 Kd (nM) by replicate": "-0.54 -0.66 -0.25 -0.81 -0.89 -0.35", "mean log10 Kd (nM)": "-0.58", "signal with controls": "0/18"}
{"CDR-H1": "GFDLEEYGIS", "CDR-H2": "VIYADGKRTFYADKVK", "CDR-H3": "GENAGTFDI", "log10 Kd (nM) by replicate": "-0.27 -0.22 -0.17 -0.49 -0.49 -0.29", "mean log10 Kd (nM)": "-0.32", "signal with controls": "0/18"}
{"CDR-H1": "GFDLNEYGIS", "CDR-H2": "VIYADGQRTAYADSVK", "CDR-H3": "GTAAGTFDS", "log10 Kd (nM) by replicate": "-0.71 -0.49 -0.71 -1.09 -0.68 -0.82", "mean log10 Kd (nM)": "-0.75", "signal with controls": "0/18"}
{"CDR-H1": "GFDLNEYGIS", "CDR-H2": "VIYADGIRTFYADSVK", "CDR-H3": "GNAAGTFDV", "log10 Kd (nM) by replicate": "0.07 -0.43 -0.24 -0.34 -0.31 -0.13", "mean log10 Kd (nM)": "-0.23", "signal with controls": "0/18"}
{"CDR-H1": "GFDLNEYGIS", "CDR-H2": "VIYADGRRTFYDDSVK", "CDR-H3": "GNAAGTFDQ", "log10 Kd (nM) by replicate": "0.15 -0.50 -0.73 -1.06 -0.89 0.94", "mean log10 Kd (nM)": "-0.35", "signal with controls": "1/18 (0.51)"}
{"CDR-H1": "GFNLNEYGIS", "CDR-H2": "VIYADGMRTFYTDSVK", "CDR-H3": "GETAGTFDN", "log10 Kd (nM) by replicate": "0.33 0.15 -0.28 0.27 -0.69 -0.03", "mean log10 Kd (nM)": "-0.04", "signal with controls": "0/18"}
{"CDR-H1": "GFDLNEYGIS", "CDR-H2": "VIYADGRRTFYADSVK", "CDR-H3": "GGNAGTFLV", "log10 Kd (nM) by replicate": "1.26 1.17 nd 0.54 0.72 nd", "mean log10 Kd (nM)": "0.92", "signal with controls": "0/18"}
{"CDR-H1": "GFDLNEYGIS", "CDR-H2": "VIYADGRRTFYADSVK", "CDR-H3": "GNVGGSFDV", "log10 Kd (nM) by replicate": "0.62 0.52 0.08 -0.03 0.01 0.09", "mean log10 Kd (nM)": "0.22", "signal with controls": "1/18 (2.67)"}
{"CDR-H1": "GFNLDEYGIS", "CDR-H2": "VIYADGRRTFYSDSVK", "CDR-H3": "GEVAGTFDF", "log10 Kd (nM) by replicate": "-0.31 -0.66 -0.02 -0.30 -0.86 -0.94", "mean log10 Kd (nM)": "-0.52", "signal with controls": "0/18"}
{"CDR-H1": "GFNLNEYGIS", "CDR-H2": "VIYADGRRTFYSDSVK", "CDR-H3": "GEHAGTFDV", "log10 Kd (nM) by replicate": "0.13 0.02 -0.10 -0.23 -0.17 -0.04", "mean log10 Kd (nM)": "-0.07", "signal with controls": "0/18"}
{"CDR-H1": "GFDINEYGIS", "CDR-H2": "VIYADGRRTFYADSVK", "CDR-H3": "GQTAGTFDQ", "log10 Kd (nM) by replicate": "-1.47 -1.46 -1.80 -1.92 -2.16 -1.49", "mean log10 Kd (nM)": "-1.72", "signal with controls": "0/18"}
{"CDR-H1": "GFDLNEYGIS", "CDR-H2": "VIYADGRRTFYADSVK", "CDR-H3": "GEVAGTFKF", "log10 Kd (nM) by replicate": "-0.57 -0.70 -0.50 -1.07 -0.63 -0.38", "mean log10 Kd (nM)": "-0.64", "signal with controls": "0/18"}
{"CDR-H1": "GFDLNEYGIS", "CDR-H2": "VIYADGRRTFYSDSVK", "CDR-H3": "GEIAGTFDL", "log10 Kd (nM) by replicate": "0.16 -0.32 -0.45 -0.19 0.02 -0.02", "mean log10 Kd (nM)": "-0.13", "signal with controls": "1/18 (2.56)"}
{"CDR-H1": "GFDLNEYGIS", "CDR-H2": "VIYADGQRTFYADNVK", "CDR-H3": "GEVAGTFDV", "log10 Kd (nM) by replicate": "-0.49 -0.40 -0.80 -0.38 -0.76 -0.60", "mean log10 Kd (nM)": "-0.57", "signal with controls": "0/18"}
{"CDR-H1": "GFSLDEYGIS", "CDR-H2": "VIYADGRRTFYADSVK", "CDR-H3": "GNSAGTFDF", "log10 Kd (nM) by replicate": "-0.01 0.86 1.55 -0.02 0.25 nd", "mean log10 Kd (nM)": "0.53", "signal with controls": "0/18"}
{"CDR-H1": "GFDLNEYGIS", "CDR-H2": "VIYADGMRTFYTDSVK", "CDR-H3": "GEVAGTFDA", "log10 Kd (nM) by replicate": "-0.36 -0.30 -0.42 -0.32 -0.46 -0.65", "mean log10 Kd (nM)": "-0.42", "signal with controls": "1/18 (2.09)"}
{"CDR-H1": "GFDLNEYGIS", "CDR-H2": "VIYADGRRTAYADSVK", "CDR-H3": "GQVAGTFDM", "log10 Kd (nM) by replicate": "-0.83 -1.03 -1.28 -0.72 -0.22 -1.08", "mean log10 Kd (nM)": "-0.86", "signal with controls": "0/18"}
{"CDR-H1": "GFDLEDYGIS", "CDR-H2": "VIYADGRRTFYSDSVK", "CDR-H3": "GEIAGTFDK", "log10 Kd (nM) by replicate": "2.08 1.17 1.70 0.67 0.80 1.25", "mean log10 Kd (nM)": "1.28", "signal with controls": "0/18"}

The last 2 entries again:

CDR-H1	CDR-H2	CDR-H3	log10 Kd (nM) by replicate	mean log10 Kd (nM)	signal with controls
GFDLNEYGIS	VIYADGRRTAYADSVK	GQVAGTFDM	-0.83 -1.03 -1.28 -0.72 -0.22 -1.08	-0.86	0/18
GFDLEDYGIS	VIYADGRRTFYSDSVK	GEIAGTFDK	2.08 1.17 1.70 0.67 0.80 1.25	1.28	0/18

Background: pairings of all heavy chain designs with three empty control strains gave a value in 1% of cases (median 2.08, 5th percentile 0.84). Values in that range, when seen in few replicates, are hard to tell from nonspecific mating. For each scFv, signals with the empty controls are counted beside the result, with their mean in brackets. The range of this assay differs from that of the first round, and the authors advise against merging the two. Of ten entries with the parent sequence, four were seen in most replicates (averages 0.34 to 2.37), three in one and three in none, so single entries are noisy. The authors averaged sequences with at least three values out of six and counted those with two or fewer as poor binders.